In patent US11844813:

Target: RBP4 displayed on the surface of yeast (Aga2p-HA-tag-(Gly4Ser)3 Linker-RBP4-c-myc Tag) (human) (UniProt P32781)
Experiment: flow cytometry dot plot: yeast displaying RBP4 stained with 100 nM StrepII-tagged TTR (biotinylated anti-Strep II antibody, streptavidin-PE) against RBP4 expression (anti-HA); the negative control without TTR shows 0.1% in the same gate

In the case of “Human StrepII-tagged TTR (from UniProt P02766 21-147)”, the % of cells in the TTR-binding gate is reported as 16.3%.
